Measured values reported in ChEMBL document CHEMBL4020839, “Class I HDAC Inhibitors Display Different Antitumor Mechanism in Leukemia and Prostatic Cancer Cells Depending on Their p53 Status” (J Med Chem, 2018).
Active and inactive are the calls of the source. The rule behind the calls is not given here.

What was measured:
MV4-11 = assay: Antiproliferative activity against human MV4-11 cells after 48 hrs by CellTiter-Blue assay; assay type: functional, cell-based; details: MV4-11, 48 h
HEK293 = assay: Antiproliferative activity against HEK293 cells after 48 hrs by CellTiter-Blue assay; assay type: ADME, cell-based; details: Homo sapiens, HEK293, 48 h
PC-3 = assay: Antiproliferative activity against human PC3 cells after 48 hrs by CellTiter-Blue assay; assay type: functional, cell-based; details: PC-3, 48 h
[1] = system: Histone deacetylase 6 (Homo sapiens); details: 0.25 to 2 uM

CCNNC(=O)c1ccc(CNC(=O)[C@H](Cc2c[nH]c3ccccc23)NC(=O)c2ccc(OC)cc2)cc1
EC50 (MV4-11): 658 nM

CCCCCNNC(=O)c1ccc(CNC(=O)[C@H](Cc2c[nH]c3ccccc23)NC(=O)c2ccc(OC)cc2)cc1
EC50 (MV4-11): 558 nM

CCCNNC(=O)c1ccc(NC(=O)[C@H](Cc2c[nH]c3ccccc23)NC(=O)c2ccc(OC)cc2)cc1
EC50 (MV4-11): 34.7 nM
EC50 (HEK293): 11 µM
EC50 (PC-3): 351 nM
inhibition [1]: Active

CCCNNC(=O)CCCCCCCNC(=O)[C@H](Cc1c[nH]c2ccccc12)NC(=O)c1ccc(OC)cc1
EC50 (MV4-11): 1690 nM

CCCNNC(=O)CCCCCNC(=O)[C@H](Cc1c[nH]c2ccccc12)NC(=O)c1ccc(OC)cc1
EC50 (MV4-11): 1250 nM

CCCCNNC(=O)c1ccc(CNC(=O)[C@H](Cc2c[nH]c3ccccc23)NC(=O)c2ccc(OC)cc2)cc1
EC50 (MV4-11): 642 nM

CCCNNC(=O)CCCCCCNC(=O)[C@H](Cc1c[nH]c2ccccc12)NC(=O)c1ccc(OC)cc1
EC50 (MV4-11): 653 nM
